# How the values were obtained:
# [1] = 24 h, 0.1 %
# [2] = 24 h, 0.1 %; remark: listed apart in the source
compound,measurement,setting,value
O=P(O)(O)O[C@H]1[C@H](OP(=O)(O)O)[C@@H](OP(=O)(O)O)[C@H](OP(=O)(O)O)[C@@H](OP(=O)(O)O)[C@H]1OP(=O)(O)O [Phytic Acid],Degradation of Avenanthramide B (%),[1],14.8%
same,Degradation (%) of Avenanthramide C,[2],85.7%
